## OPERA 2.9 data: logP (octanol/water) values

From the experimental data distributed with OPERA 2.9.

The octanol-water partition coefficient is given as log10; larger values mean a more lipophilic compound.
"via" names the databases from which the curators took the value.

- CCCCOCCOC(C)=O: logP 1.51 (via PubChem, eChemPortal)
- C=CC(=O)OCCN(C)C: logP 0.68 (via OCHEM, OFMPub, eChemPortal)
- CCOP(=S)(S)OCC: logP -0.77 (via OCHEM)
- C[N+](C)(C)CC1CCOC1.[I-] (stereo not drawn): logP -2.65 (via OCHEM)
- C=CC(=O)NCO: logP -1.81 (via PubChem)
- Cc1cccc(C)c1Cc1cnc[nH]1: logP 2.72 (via OCHEM)
- CCOCCOC(C)=O: logP 0.24 (via PubChem)
- CC1O[C@@H](O[C@H]2CC[C@]3(C)C4CC[C@]5(C)[C@@H](C6=CC(=O)OC6)CC[C@]5(O)C4CC[C@@H]3C2)CC(O)[C@@H]1O (some centres undefined): logP 2.51 (via OCHEM)
- Cl.N=C(N)NN: logP -3.55 (via eChemPortal)
- CC(C)c1ccc(CO)cc1: logP 2.49 (via OCHEM)
- [C-]#[O+].[C-]#[O+].[C-]#[O+].[C-]#[O+].[C-]#[O+].[Fe]: logP 3 (via eChemPortal)
- Nc1ccc(-c2ccc(N)c(N)c2)cc1N: logP 0.09 (via PubChem)
- COC(=O)c1cc([N+](=O)[O-])cc([N+](=O)[O-])c1: logP 1.84 (via OCHEM)
- Cc1cc(Cl)ccc1OCCCC(=O)O: logP 2.79 (via PubChem)
- CNC(=O)c1cc(N2CC2)c([N+](=O)[O-])cc1[N+](=O)[O-]: logP 0.44 (via OCHEM)
- Cc1cccnc1C[N+](C)(C)C.[Br-]: logP -2.9 (via OCHEM)
- CCCC[N+](CCCC)(CCCC)CCCC.[OH-]: logP 1.518 (via eChemPortal)
- CCN(C)C(=O)Oc1cccc([C@H](C)N(C)C)c1: logP 2.3 (via PubChem)
- O=[N+]([O-])c1ccc(/N=N/c2cc(/N=N/c3cc(S(=O)(=O)[O-])cc4cc(S(=O)(=O)[O-])c(/N=N/c5cc([N+](=O)[O-])cc([N+](=O)[O-])c5O)c(O)c34)c(O)cc2O)cc1.[Na+].[Na+]: logP -1.189 (via eChemPortal)
- C[N+](C)(C)Cc1cccc(Br)c1.[Br-]: logP -1.81 (via OCHEM)
- COP(=O)(CCC(=O)NCO)OC: logP -1.68 (via eChemPortal)
- CC(=O)O[C@]1(C(C)=O)CC[C@H]2[C@@H]3CCC4=CC(=O)CC[C@@H]4[C@H]3CC[C@@]21C: logP 2.64 (via eChemPortal)
- CC(=O)OC(C)=O: logP -0.27 (via PubChem)
- c1ccc(-c2ccccc2-c2ccccc2)cc1: logP 5.28 (via OFMPub)
- COC(=O)N(C)SN(C)C(=O)ON=C(SC)C(=O)N(C)C: logP -0.07 (via OCHEM)
- CC(=O)OO: logP -0.56 (via eChemPortal)
- CCN(CC)CCO: logP 0.21 (via OCHEM, PubChem, eChemPortal)
- NCC(CC(=O)O)c1ccc(F)cc1 (stereo not drawn): logP -1.6 (via OCHEM)
- Nc1ccc(Cl)cc1C(=O)c1ccccc1Cl: logP 3.1 (via eChemPortal)
- FC(F)(Br)Br: logP 1.99 (via PubChem)
- Clc1ccc(-c2cc(Cl)c(Cl)c(Cl)c2)cc1: logP 6.36 (via OCHEM)
- C[C@]12CCC(=O)C=C1CC[C@@H]1[C@@H]2CC[C@@]2(C)[C@H]1CC[C@]2(O)C#N: logP 2.43 (via eChemPortal)
- CCCCCCC(C)N (stereo not drawn): logP 2.82 (via OCHEM)
- CCCCCCCCCCCCCCCC[n+]1ccccc1.[Br-]: logP 1.83 (via PubChem)
- FC(F)=C(F)C(F)=C(F)F: logP 2.24 (via eChemPortal)
- Clc1cc(-c2cc(Cl)c(Cl)c(Cl)c2Cl)cc(Cl)c1Cl: logP 7.71 (via OCHEM)
- CC(=O)O[C@H]1[C@@H](N2CCCC2)C[C@H]2[C@@H]3CC[C@H]4C[C@H](O)[C@@H](N5CCOCC5)C[C@]4(C)[C@H]3CC[C@@]21C: logP 3.9 (via eChemPortal)
- FC(F)(Cl)Br: logP 2.1 (via PubChem)
- CN1CCN(C(=O)OC2c3nccnc3C(=O)N2c2ccc(Cl)cn2)CC1 (stereo not drawn): logP 0.8 (via PubChem)
- COc1ccc2c3c1O[C@H]1C(=O)CC[C@H]4[C@@H](C2)N(C)CC[C@]314: logP 1.2 (via PubChem)
- C[n+]1ccc(-c2ccccc2)cc1.[I-]: logP -2.28 (via OCHEM)
- ClCCOCOCCCl: logP 1.6 (via eChemPortal)
- CNP(=O)(N1CC1C)N1CC1C (stereo not drawn): logP 1.05 (via eChemPortal)
- C=CCc1ccccc1O: logP 2.55 (via OCHEM)
- O=C(CCCCl)c1ccc(F)cc1: logP 2.84 (via eChemPortal)
- c1cnc2c(c1)ccc1ncccc12: logP 2.51 (via OCHEM)
- CCC(C)(C)c1ccc(O)cc1: logP 3.83 (via OCHEM, OFMPub, PubChem, eChemPortal)
- CCCCCCCCCCCCCCCC[N+](C)(C)CCO.O=P([O-])(O)O: logP 6.708 (via eChemPortal)
- COc1ccc2c3c1OC1C(=O)CCC4(O)C(C2)N(C)CCC314.Cl (stereo not drawn): logP -0.15 (via OCHEM)
- N[C@@H](Cc1cc(Br)c(O)c(Br)c1)C(=O)O: logP 0.05 (via OCHEM)
- C=CF: logP 1.19 (via OFMPub)
- CCOC(=S)[S-].[Na+]: logP -2.48 (via eChemPortal)
- CC(O)CN1CCN(CC(=O)[O-])CCN(CC(=O)[O-])CCN(CC(=O)[O-])CC1.[Gd+3] (stereo not drawn): logP -3.68 (via PubChem)
- CC(C)COC(=O)[C@H](C)Cl: logP 2.775 (via eChemPortal)
- CC1OC(OC2CCC3(CO)C4CCC5(C)C6(C=CC(=O)OC6)CCC5(O)C4CCC3(O)C2)CC(O)C1O (stereo not drawn): logP 0.15 (via OCHEM)
- Cl.OC(CNC1CCCCC1)c1ccccc1 (stereo not drawn): logP -0.11 (via OCHEM)
- CC(F)(Cl)Cl: logP 2.3 (via PubChem)

Excerpt, the final 7 entries:

- C=CF: logP 1.19 (via OFMPub)
- CCOC(=S)[S-].[Na+]: logP -2.48 (via eChemPortal)
- CC(O)CN1CCN(CC(=O)[O-])CCN(CC(=O)[O-])CCN(CC(=O)[O-])CC1.[Gd+3] (stereo not drawn): logP -3.68 (via PubChem)
- CC(C)COC(=O)[C@H](C)Cl: logP 2.775 (via eChemPortal)
- CC1OC(OC2CCC3(CO)C4CCC5(C)C6(C=CC(=O)OC6)CCC5(O)C4CCC3(O)C2)CC(O)C1O (stereo not drawn): logP 0.15 (via OCHEM)
- Cl.OC(CNC1CCCCC1)c1ccccc1 (stereo not drawn): logP -0.11 (via OCHEM)
- CC(F)(Cl)Cl: logP 2.3 (via PubChem)

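The numbers are reported measurements, compiled and curated for the OPERA QSAR suite. One number stands for a compound and property, with no spread given. Method and conditions are not stated for these values. Where a salt, mixture or single isomer is drawn, the source does not say that exactly this form was tested. Unmarked limits or estimates from the upstream databases cannot be ruled out.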